The results in this text go back to patent publication US20250215026A1, “Deuterated Compounds, Compositions and Uses” (BioJive LLC, priority 2018, published 2025).

Like-named read-outs stand apart in the source and are kept apart here.

The conditions of this assay: FIG. 2B.

Turning to `[2H]C([2H])(/C=C\CCCCC)/C=C\CCCCCCCC(=O)O[C@H](COC(=O)CCCCCCCCCCCCCCCCC)COP(=O)([O-])OCC[N+](C)(C)C` [D2-Lin-PC, 1-stearoyl-2-(11,11-D2-linoleyl)-sn-glycero-3-phosphatidylcholine], the “ΔA234 time course after addition of Fe2+/ascorbate” value was “did not increase” (high content of D2-Lin-PC) and “increased considerably” (low percentage of D2-Lin-PC).
